Measurements taken from US12305226B2 (dated 2025).

Chains of the proteins cited; added tags and fusions are not shown. Lines headed by an entry give the natural chain unless they say otherwise; changes in a name come on top.
UniProt P11229: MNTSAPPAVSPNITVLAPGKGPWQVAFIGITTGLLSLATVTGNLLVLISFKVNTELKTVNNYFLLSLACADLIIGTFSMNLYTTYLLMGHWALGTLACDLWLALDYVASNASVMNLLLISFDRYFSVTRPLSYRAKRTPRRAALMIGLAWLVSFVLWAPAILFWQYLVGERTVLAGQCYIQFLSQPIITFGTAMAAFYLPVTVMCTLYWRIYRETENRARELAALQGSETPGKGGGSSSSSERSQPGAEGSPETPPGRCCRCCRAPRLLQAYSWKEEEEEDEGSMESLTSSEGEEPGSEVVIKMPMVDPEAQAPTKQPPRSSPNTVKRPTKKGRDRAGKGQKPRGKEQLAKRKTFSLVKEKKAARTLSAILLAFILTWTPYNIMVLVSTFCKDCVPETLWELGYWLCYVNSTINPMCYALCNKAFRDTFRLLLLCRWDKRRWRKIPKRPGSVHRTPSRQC

Biological target: CHRM1 (Homo sapiens, UniProt P11229)

agonist type identified by polony co-localization ratios: allosteric
Structure (SMILES): CCCCCCOc1nsnc1C1=CCCN(C)C1 [xanomeline]
